# Experimental data reported in ChEMBL document CHEMBL3804781, “Antitrypanosomal activity of 5-nitro-2-aminothiazole-based compounds” (Eur J Med Chem, 2016).
# Assay: Selectivity ratio of IC50 for bloodstream form of Trypanosoma brucei rhodesiense STIB 900 trypomastigotes to IC50 for bloodstream form of Trypanosoma brucei brucei
# Format: functional
row,SMILES,Ratio IC50
1,O=C(CN1CCN(c2ccc(Cl)c(Cl)c2)CC1)Nc1ncc([N+](=O)[O-])s1,< 12
2,O=C(Nc1ncc([N+](=O)[O-])s1)c1ccc(-c2ccccc2)cc1,< 12
3,O=C(CN1CCN(c2ccc(C(F)(F)F)cc2)CC1)Nc1ncc([N+](=O)[O-])s1,< 12
4,O=C(CN1CCN(C(c2ccccc2)c2ccc(Cl)cc2)CC1)Nc1ncc([N+](=O)[O-])s1 (stereo unspecified),< 12
5,O=C(CN1CCN(c2ccccn2)CC1)Nc1ncc([N+](=O)[O-])s1,< 12
6,O=C(COc1ccc(-c2ccccc2)cc1)Nc1ncc([N+](=O)[O-])s1,< 12
